# Apparent affinities of Ab-14 variants for a coronavirus HR2 peptide

The target is the same throughout: PDVDLGDISGINAS, from the HR2 region of SARS-CoV-2 spike.

Ab-14 is the parent antibody, in scFv form: VH, then a (GGGGS)3 linker, then VL. The heavy chain is unchanged in all variants.
VH: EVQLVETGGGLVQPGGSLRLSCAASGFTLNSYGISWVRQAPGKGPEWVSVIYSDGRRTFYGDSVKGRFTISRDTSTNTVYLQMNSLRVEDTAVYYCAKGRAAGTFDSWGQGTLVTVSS
VL: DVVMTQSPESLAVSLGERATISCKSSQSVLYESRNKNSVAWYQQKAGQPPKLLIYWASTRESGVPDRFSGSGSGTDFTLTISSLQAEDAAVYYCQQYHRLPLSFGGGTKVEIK

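The starting antibody came from a phage panning campaign against this peptide. AAYL50 was designed without a model: most single CDR substitutions and a random sample of double and triple ones. AlphaSeq pools MATa yeast showing the antibodies with MATalpha yeast showing the peptide. Binding brings cells together so that they mate, and sequencing counts the barcode pairs among the diploids. A regression on co-assayed BCL2-family reference pairs converts the normalised counts of each replicate to an apparent Kd. The assay was run in three technical replicates.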

The parent's light chain CDRs are KSSQSVLYESRNKNSVA, WASTRES, QQYHRLPLS; each variant's own CDRs replace them letter for letter. The read-out is the apparent dissociation constant on a log10 scale (nM): the lower, the stronger. A mean of the replicates is given; it leaves out those without a signal. "nd" means that the variant was in the library but no mating with the target was seen in that replicate; the authors take this as a sign of poor binding, and no number exists.

| CDR-L1 | CDR-L2 | CDR-L3 | replicates, log10 nM | log10 Kd (nM), mean | signal with controls |
|---|---|---|---|---|---|
| KSSQSVLYESRNKNSVA | WASWREN | QQYHRLPLM | 1.80 2.17 2.20 | 2.05 | 0 of 9 |
| KSSQSVLYRSRNKNSVA | WASQFES | QQYHRLPLS | 5.53 5.38 nd | 5.45 | 1 of 9 (4.13) |
| KSSQNVLYESRNKNSVY | WASTRES | QQYHRGPLS | 4.40 nd nd | 4.40 | 3 of 9 (3.97) |
| KSSQGVLYESRNWNPVA | WASTRES | QQYHRLPLS | 3.11 2.79 3.00 | 2.97 | 1 of 9 (4.41) |
| KSSQSMLYESRNKNSAA | WASTRES | QQYHNLPLS | 4.88 nd nd | 4.88 | 5 of 9 (4.57) |
| KSNQSVLYESRNKGSRA | WASTRES | QQYHRLPLS | nd nd 6.32 | 6.32 | 7 of 9 (4.09) |
| KQIQSVLYESRNKNSVA | WASTRES | QQYHHLPLS | 1.68 2.43 2.32 | 2.14 | 1 of 9 (4.25) |
| KSYQSVLYESRNKNSVA | WHSTRLS | QQYHRLPLS | nd nd nd | nd | 1 of 9 (3.91) |
| KSSQSVLYESRNKNSVA | WAPTRET | QQYHRLCLS | nd 3.02 5.98 | 4.50 | 2 of 9 (5.00) |
| KSWQSVLYESRNKNSVA | WASTREG | QQYHRKPLS | 3.73 3.87 3.41 | 3.67 | 3 of 9 (3.90) |
| KSSQWVLYESRNKNSVA | WASTRES | QQYHRIPLS | nd nd 3.11 | 3.11 | 1 of 9 (3.81) |
| KISQQVLYESRNKNSVA | WASHRES | QQYHRLPLS | -0.21 0.18 -0.04 | -0.02 | 3 of 9 (4.95) |
| KSSQSVLYESRDKNIVA | WASTRES | EQYHRLPLS | nd nd nd | nd | 1 of 9 (4.04) |
| TSSQSVLYESRNKNSMA | WASTRES | QQYHHLPLS | 3.26 2.86 3.40 | 3.17 | 5 of 9 (3.94) |
| KSSQSVLYCSRCKNSVA | WASTRES | KQYHRLPLS | 4.23 nd nd | 4.23 | 7 of 9 (4.33) |
| KSSQDVLYEHRNKNSVL | WASTRES | QQYHRLPLS | nd nd nd | nd | 0 of 9 |
| KSSQSVLGESTNKNSVA | WASTRES | QQYHMLPLS | 0.34 0.61 0.41 | 0.46 | 3 of 9 (4.09) |
| CSMQSVLYESRNKNSVA | WASTRES | QQYHRLQLS | nd nd nd | nd | 2 of 9 (3.73) |
| KSSQSVLYYSRNKNSVA | WASTRES | QQYMRLPLS | 0.89 1.08 0.89 | 0.96 | 1 of 9 (2.96) |
| KSSQSVLYESRNKPSVA | WASTRES | QQRHALPLS | 2.00 2.01 1.96 | 1.99 | 1 of 9 (3.66) |
| KSSQSVLYESRNKNSVF | WASTRES | QQYHRLELS | 4.14 nd 5.79 | 4.96 | 4 of 9 (4.83) |
| KSSQSVLYESRNKNSVT | WFSTRES | QQYHRLPLS | nd 3.36 nd | 3.36 | 3 of 9 (4.80) |
| KSSMWWLYESRNKNSVA | WASTRES | QQYHRLPLS | 1.76 1.67 1.74 | 1.72 | 0 of 9 |
| KSSQSVLYESRNKNSSA | WASTRES | MQYHRLPLS | nd nd nd | nd | 0 of 9 |
| KSSQSVLYESRNKNSVA | WASTRNS | QQYHRLYLS | nd 3.24 nd | 3.24 | 2 of 9 (3.97) |
| KSSQEVLYERRNKNSVA | WASTRES | QQYHREPLS | 2.20 1.60 1.75 | 1.85 | 0 of 9 |
| KSSQSVCYESRNKRSVA | HASTRES | QQYHRLPLS | 0.51 0.74 0.70 | 0.65 | 1 of 9 (3.92) |
| KSSQSVMYESRNKNSVA | WASTIES | QCYHRLPLS | nd nd nd | nd | 1 of 9 (4.15) |
| KSSQSVLYESRNKCSVA | WASTRTS | QQYERLPLS | nd 2.68 nd | 2.68 | 1 of 9 (5.45) |
| SSRQSVLYESHNKNSVA | WASTRES | QQYHRLPLS | 1.73 1.50 1.85 | 1.69 | 3 of 9 (4.58) |
| DSSQSVLYESRNKNSVA | WASTREM | QQYHRLPLS | 1.62 1.70 1.74 | 1.69 | 1 of 9 (4.01) |
| KSSQSVLYESRNKNSVA | WASTRES | QLYNILPLS | nd nd nd | nd | 0 of 9 |
| KSSGSVMYESRNKNSVA | WASTRES | QTYHRLPLS | 1.71 1.62 2.02 | 1.78 | 1 of 9 (4.60) |

From the list, the first 3 with no signal in any replicate:

| CDR-L1 | CDR-L2 | CDR-L3 | replicates, log10 nM | log10 Kd (nM), mean | signal with controls |
|---|---|---|---|---|---|
| KSYQSVLYESRNKNSVA | WHSTRLS | QQYHRLPLS | nd nd nd | nd | 1 of 9 (3.91) |
| KSSQSVLYESRDKNIVA | WASTRES | EQYHRLPLS | nd nd nd | nd | 1 of 9 (4.04) |
| KSSQDVLYEHRNKNSVL | WASTRES | QQYHRLPLS | nd nd nd | nd | 0 of 9 |

As a blank, each scFv also met three strains without target: over library AAYL50, 18% of these pairings were detected, typically at 4.19 and seldom below 2.99. For each scFv, signals with the empty controls are counted beside the result, with their mean in brackets. For reference, the parent read 0.65 as the reference entry and 1.68 as a member of this library.

Data: MIT Lincoln Laboratory AlphaSeq set, Engelhart et al. 2022, doi:10.1038/s41597-022-01779-4, as distributed in FLAb.